Values of other authors in article PMC10454243, “Anticancer Study of a Novel Pan-HDAC Inhibitor MPT0G236 in Colorectal Cancer Cells” (International Journal of Molecular Sciences, 2023).

Tested on: HDAC8
Conditions: Class I; ref Reaction Biology Corporation website; cited from earlier work

In the case of `O=C(CCCCCCC(=O)Nc1ccccc1)NO` [SAHA, Suberoylanilide hydroxamic acid, reference compound], the IC50 is listed as 306 nM.
